We go through 17 compounds from US20060079453A1, “Hla binding peptides and their uses” (priority 2002, published 2006).

Protein sequences, listed by entry. Tags and fused reporters are not part of them. Residues count along the entry.
UniProt P79483, 30-266: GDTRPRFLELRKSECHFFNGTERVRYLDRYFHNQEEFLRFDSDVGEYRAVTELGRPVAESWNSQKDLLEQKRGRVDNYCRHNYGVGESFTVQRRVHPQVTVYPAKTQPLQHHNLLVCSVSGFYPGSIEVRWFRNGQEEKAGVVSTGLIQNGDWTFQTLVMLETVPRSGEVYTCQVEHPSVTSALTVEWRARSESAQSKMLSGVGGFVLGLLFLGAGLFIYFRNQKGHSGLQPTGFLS
UniProt Q30154, 30-266: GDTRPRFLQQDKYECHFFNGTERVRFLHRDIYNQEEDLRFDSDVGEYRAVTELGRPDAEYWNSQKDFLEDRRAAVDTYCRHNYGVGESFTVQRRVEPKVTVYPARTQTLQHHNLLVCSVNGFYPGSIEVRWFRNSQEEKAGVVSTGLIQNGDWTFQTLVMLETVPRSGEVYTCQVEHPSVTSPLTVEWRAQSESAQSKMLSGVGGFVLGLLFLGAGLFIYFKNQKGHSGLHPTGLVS

Targets include HLA-DR DRB3*0101 (DR52) (Homo sapiens, UniProt P01903+P79483); HLA-DR DRB1*0301 (DR3) (Homo sapiens, UniProt P01903+P01911, A100K/A102G/A103R/A169T/F55Y/I96L/K41T/L162R/M171V/P40S/Q125H/Q178H/Q39Y/R42S/S66N/T106N/T262R/W38E/Y61H); HLA-DR DRB1*0802 (DR8) (Homo sapiens, UniProt P01903+P01911, A100R/A103L/A169T/F76Y/H45Y/I96F/K41T/L162R/M171V/P40S/Q125H/Q178H/Q39Y/Q99D/R218S/R42G/S66Y/V115G/W38E); HLA-DR DRB4*0101 (DR53) (Homo sapiens, UniProt P01903+P13762, G164S); HLA-DR DRB1*1101 (DR11) (Homo sapiens, UniProt P01903+P01911, A100R/A169T/A87E/I96F/K41T/L162R/M171V/P40S/Q125H/Q178H/Q39Y/Q99D/R42S/S66Y/T262R/V115G/W38E).

What all share (assay): biochemical
Format in all cases: binding

The target in another assay is HLA-DR DRB5*0101 (DR51) (Homo sapiens, UniProt P01903+Q30154). The following applies: DRB5 *0101.
In a further assay the target is HLA-DR DRB1*0901 (DR9) (Homo sapiens, UniProt P01903+P01911, A100R/A103E/D57H/D86V/F55Y/F60I/F76Y/I96F/K127E/L162R/M171V/P40D/Q125H/Q99R/R33Q/R42F/S133A/S66N/T210M/V115G/W38K/Y107V/Y59G/Y89S). The following applies: DRB1 *0901.
The next assay has as its target HLA-DR DRB1*0701 (DR7) (Homo sapiens, UniProt P01903+P01911, A100R/A102G/A103Q/D57E/D86V/E43K/F76Y/K127E/L162R/M171V/P40G/Q125H/Q99D/R33Q/R42Y/R54Q/S133A/S66F/T210M/V115G/Y107V/Y59L/Y89S). The following applies: DRB1 *0701.

Where two headings read alike, the source gives them in different places.

For the compound `CC[C@H](C)[C@H](NC(=O)[C@H](CCCNC(=N)N)NC(=O)[C@H](CC(C)C)NC(=O)[C@H](Cc1ccccc1)NC(=O)[C@@H](NC(=O)[C@H](CCC(=O)O)NC(=O)[C@@H](NC(=O)[C@H](CCCCN)NC(=O)[C@H](CC(=O)O)NC(=O)[C@H](CCSC)NC(=O)[C@@H](N)CC(=O)O)C(C)C)[C@@H](C)O)C(=O)N[C@H](C(=O)N[C@@H](CCC(N)=O)C(=O)N[C@@H](CS)C(=O)N[C@@H](CCCNC(=N)N)C(=O)O)C(C)C`, on HLA-DR DRB3*0101 (DR52), the IC50 was above 27.3 µM.
Compound `CC(C)C[C@H](NC(=O)[C@H](Cc1ccc(O)cc1)NC(=O)[C@H](CO)NC(=O)[C@H](Cc1ccc(O)cc1)NC(=O)[C@@H](N)CC(=O)O)C(=O)N[C@@H](CCC(N)=O)C(=O)N[C@@H](CC(=O)O)C(=O)N[C@@H](CO)C(=O)N[C@@H](CC(=O)O)C(=O)N1CCC[C@H]1C(=O)N[C@@H](CC(=O)O)C(=O)N[C@@H](CO)C(=O)N[C@@H](Cc1ccccc1)C(=O)N[C@@H](CCC(N)=O)C(=O)N[C@@H](CC(=O)O)C(=O)O` registered an IC50 against HLA-DR DRB5*0101 (DR51) above 40 µM.
On to `CC[C@H](C)[C@H](NC(=O)[C@H](CCCNC(=N)N)NC(=O)[C@H](CC(C)C)NC(=O)[C@@H](N)Cc1ccccc1)C(=O)N[C@H](C(=O)N[C@@H](CCC(N)=O)C(=O)N[C@H](C(=O)N[C@@H](CCCNC(=N)N)C(=O)N[C@@H](CO)C(=O)N[C@H](C(=O)N[C@@H](CCC(=O)O)C(=O)NCC(=O)N[C@@H](CO)C(=O)N[C@H](C(=O)NCC(=O)N[C@@H](Cc1ccccc1)C(=O)O)[C@@H](C)O)C(C)C)[C@@H](C)O)C(C)C`, for which the IC50 against HLA-DR DRB3*0101 (DR52) is 27.3 µM.
For the compound `CC[C@H](C)[C@H](NC(=O)CN)C(=O)N[C@@H](CCC(N)=O)C(=O)N[C@H](C(=O)N[C@@H](CC(C)C)C(=O)N[C@@H](CCSC)C(=O)NCC(=O)N[C@@H](CCCNC(=N)N)C(=O)N[C@@H](CC(C)C)C(=O)N[C@@H](CCC(=O)O)C(=O)N[C@@H](CC(=O)O)C(=O)NCC(=O)N[C@@H](CO)C(=O)N1CCC[C@H]1C(=O)N[C@@H](CCCNC(=N)N)C(=O)O)[C@@H](C)O`, the IC50 at HLA-DR DRB1*0301 (DR3) is above 55.9 µM; against HLA-DR DRB1*0802 (DR8) it was above 33.3 µM; against HLA-DR DRB3*0101 (DR52) it was 186 µM; against HLA-DR DRB1*0901 (DR9), 37.8 µM.
Take `CSCC[C@H](NC(=O)[C@H](CCC(N)=O)NC(=O)[C@@H](NC(=O)[C@H](Cc1ccccc1)NC(=O)[C@H](C)NC(=O)[C@@H](NC(=O)CN)[C@@H](C)O)C(C)C)C(=O)N1CCC[C@H]1C(=O)N[C@@H](C)C(=O)N[C@@H](Cc1c[nH]cn1)C(=O)NCC(=O)N[C@@H](CC(C)C)C(=O)N[C@@H](Cc1ccccc1)C(=O)N1CCC[C@H]1C(=O)N[C@@H](Cc1c[nH]c2ccccc12)C(=O)O`: the IC50 turned out to be 2.36 µM on HLA-DR DRB4*0101 (DR53) (DRB4 *0101) and 0.769 µM on HLA-DR DRB3*0101 (DR52).
Compound `CC[C@H](C)[C@H](NC(=O)[C@@H](NC(=O)CN)C(C)C)C(=O)N[C@@H](CC(C)C)C(=O)N[C@@H](Cc1ccc(O)cc1)C(=O)N[C@@H](CO)C(=O)N[C@@H](CC(=O)O)C(=O)N1CCC[C@H]1C(=O)N[C@@H](C)C(=O)N[C@@H](CC(=O)O)C(=O)N[C@@H](Cc1ccc(O)cc1)C(=O)N[C@@H](Cc1ccccc1)C(=O)N[C@@H](C)C(=O)N1CCC[C@H]1C(=O)NCC(=O)O` yielded an IC50 on HLA-DR DRB5*0101 (DR51) of 14.2 µM.
`CC[C@H](C)[C@H](NC(=O)[C@@H](NC(=O)[C@H](Cc1c[nH]c2ccccc12)NC(=O)[C@H](C)NC(=O)[C@H](CS)NC(=O)[C@H](Cc1c[nH]cn1)NC(=O)[C@H](CO)NC(=O)[C@H](CC(=O)O)NC(=O)[C@H](CCC(=O)O)NC(=O)[C@H](CCCCN)NC(=O)[C@H](C)NC(=O)[C@H](CCCCN)NC(=O)[C@H](CC(C)C)NC(=O)[C@H](Cc1ccc(O)cc1)NC(=O)[C@@H](N)Cc1c[nH]cn1)[C@@H](C)O)C(=O)O`: the IC50 is above 60.6 µM at HLA-DR DRB1*1101 (DR11) (DRB1 *1101); 34.8 µM at HLA-DR DRB1*0301 (DR3); 34.9 µM on HLA-DR DRB1*0802 (DR8); 301 µM against HLA-DR DRB3*0101 (DR52); above 77.3 µM against HLA-DR DRB1*0901 (DR9).
On to `CC[C@H](C)[C@H](N)C(=O)N1CCC[C@H]1C(=O)N[C@@H](CCCCN)C(=O)N[C@@H](CCC(=O)O)C(=O)N[C@@H](CCC(N)=O)C(=O)N[C@@H](CCCCN)C(=O)N[C@@H](Cc1ccc(O)cc1)C(=O)N[C@@H](CO)C(=O)N[C@@H](Cc1ccccc1)C(=O)N[C@@H](CC(C)C)C(=O)N[C@@H](CCC(N)=O)C(=O)N[C@@H](CC(N)=O)C(=O)N1CCC[C@H]1C(=O)N[C@@H](CCC(N)=O)C(=O)N[C@H](C(=O)O)[C@@H](C)O`, for which the IC50 on HLA-DR DRB1*1101 (DR11) (DRB1 *1101) was above 15.4 µM; on HLA-DR DRB1*0301 (DR3), 50 µM; against HLA-DR DRB4*0101 (DR53) (DRB4 *0101), 55.6 µM; against HLA-DR DRB3*0101 (DR52), 30.6 µM; on HLA-DR DRB1*0901 (DR9), 79.8 µM.
Consider `CC(C)C[C@H](NC(=O)[C@H](CCC(N)=O)NC(=O)[C@H](CCC(N)=O)NC(=O)[C@H](Cc1ccccc1)NC(=O)[C@H](C)NC(=O)[C@H](CCCNC(=N)N)NC(=O)[C@@H](N)CC(C)C)C(=O)N[C@@H](Cc1ccccc1)C(=O)N[C@@H](CC(C)C)C(=O)N[C@@H](CC(N)=O)C(=O)N[C@H](C(=O)N[C@@H](CC(C)C)C(=O)N[C@@H](CO)C(=O)N[C@@H](Cc1ccccc1)C(=O)N[C@H](C(=O)O)C(C)C)[C@@H](C)O`, for which the IC50 against HLA-DR DRB5*0101 (DR51) amounted to 0.253 µM.
As to `CSCC[C@H](N)C(=O)N[C@@H](CO)C(=O)N[C@@H](Cc1ccc(O)cc1)C(=O)N[C@@H](CC(N)=O)C(=O)N[C@@H](CC(C)C)C(=O)N[C@@H](CC(C)C)C(=O)NCC(=O)N[C@@H](Cc1ccccc1)C(=O)N[C@@H](CC(C)C)C(=O)N[C@@H](CCC(N)=O)C(=O)N[C@@H](CCCNC(=N)N)C(=O)N[C@@H](CO)C(=O)N[C@@H](CO)C(=O)N[C@@H](CC(N)=O)C(=O)N[C@@H](CS)C(=O)O`, the figures for the IC50 at HLA-DR DRB1*0301 (DR3) and against HLA-DR DRB3*0101 (DR52) were 157 µM and above 42.2 µM, respectively.
At HLA-DR DRB3*0101 (DR52), `CC[C@H](C)[C@H](NC(=O)[C@H](CO)NC(=O)[C@H](CC(C)C)NC(=O)[C@@H](NC(=O)[C@H](CC(C)C)NC(=O)[C@H](CC(=O)O)NC(=O)[C@H](Cc1c[nH]c2ccccc12)NC(=O)[C@@H](N)CCSC)C(C)C)C(=O)N[C@@H](C)C(=O)N[C@@H](CC(C)C)C(=O)N[C@@H](CO)C(=O)N[C@H](C(=O)NCC(=O)N[C@@H](CS)C(=O)N[C@H](C(=O)O)[C@@H](C)O)C(C)C` came in with an IC50 of 15.2 µM.
`CC(C)C[C@H](NC(=O)[C@H](CC(C)C)NC(=O)[C@@H](N)CC(N)=O)C(=O)N[C@@H](C)C(=O)N[C@@H](CC(N)=O)C(=O)N[C@H](C(=O)N[C@@H](Cc1ccc(O)cc1)C(=O)N[C@@H](Cc1c[nH]cn1)C(=O)N[C@@H](CCC(N)=O)C(=O)N[C@@H](CCCNC(=N)N)C(=O)N[C@@H](CC(N)=O)C(=O)N[C@@H](Cc1c[nH]cn1)C(=O)N[C@@H](CC(C)C)C(=O)N[C@@H](CCCCN)C(=O)N[C@H](C(=O)O)[C@@H](C)O)C(C)C`: the IC50 against HLA-DR DRB1*0301 (DR3) is 40.3 µM; at HLA-DR DRB3*0101 (DR52), above 123 µM; against HLA-DR DRB1*0701 (DR7), 8 µM.
For `CC[C@H](C)[C@H](NC(=O)[C@H](CCC(=O)O)NC(=O)[C@H](CCC(=O)O)NC(=O)[C@@H]1CCCN1)C(=O)N[C@@H](CCCCN)C(=O)N[C@@H](CCC(N)=O)C(=O)N[C@@H](CC(C)C)C(=O)N[C@@H](CCC(N)=O)C(=O)N[C@@H](CCC(N)=O)C(=O)N[C@@H](Cc1ccccc1)C(=O)N[C@@H](CCC(N)=O)C(=O)N[C@@H](CCCCN)C(=O)N[C@@H](CCC(=O)O)C(=O)N[C@@H](CC(=O)O)C(=O)N[C@@H](C)C(=O)O`, the IC50 against HLA-DR DRB1*0301 (DR3) is 40.2 µM; against HLA-DR DRB1*0802 (DR8), 11.9 µM; against HLA-DR DRB3*0101 (DR52) it was above 26.3 µM; at HLA-DR DRB1*0901 (DR9) it was above 77.3 µM; against HLA-DR DRB1*0701 (DR7) it was 49.5 µM.
`CC(C)C[C@H](NC(=O)[C@H](CC(=O)O)NC(=O)[C@H](C)NC(=O)[C@H](Cc1ccccc1)NC(=O)[C@H](C)NC(=O)[C@H](Cc1ccccc1)NC(=O)[C@H](CC(=O)O)NC(=O)[C@H](Cc1ccc(O)cc1)NC(=O)[C@@H](N)C(C)C)C(=O)N[C@H](C(=O)N[C@H](C(=O)N[C@H](C(=O)N[C@@H](Cc1ccc(O)cc1)C(=O)N[C@@H](CCCNC(=N)N)C(=O)N[C@@H](CCC(=O)O)C(=O)O)C(C)C)C(C)C)[C@@H](C)O` yielded an IC50 against HLA-DR DRB5*0101 (DR51) of 27.3 µM.
In the case of `CC(C)C[C@H](NC(=O)[C@H](Cc1c[nH]cn1)NC(=O)[C@H](CC(N)=O)NC(=O)[C@H](CCCNC(=N)N)NC(=O)[C@H](CCC(N)=O)NC(=O)[C@H](Cc1c[nH]cn1)NC(=O)[C@H](Cc1ccc(O)cc1)NC(=O)[C@@H](N)C(C)C)C(=O)N[C@@H](CCCCN)C(=O)N[C@H](C(=O)N[C@H](C(=O)N[C@@H](CC(C)C)C(=O)N[C@@H](CCC(=O)O)C(=O)N[C@@H](CCC(=O)O)C(=O)N[C@@H](CCCCN)C(=O)O)C(C)C)[C@@H](C)O`, the IC50 on HLA-DR DRB3*0101 (DR52) is above 123 µM; against HLA-DR DRB1*0901 (DR9) it was above 77.3 µM.
As to SHDLMLLRISEPAEL, the IC50 stood at 4.47 µM on HLA-DR DRB1*1101 (DR11) (read-out: DRB1 *1101) and 13.6 µM at HLA-DR DRB3*0101 (DR52) (read-out: DRB3 *0101).
For TYSVSFDSLFSAVKN, the figures for the IC50 at HLA-DR DRB4*0101 (DR53) (read-out: DRB4 *0101) and at HLA-DR DRB3*0101 (DR52) (read-out: DRB3 *0101) were 10.5 µM and 8.55 µM, respectively.
